Experimental findings from ChEMBL document CHEMBL1131221, “2'-C-Methyl analogues of selective adenosine receptor agonists: synthesis and binding studies” (J Med Chem, 1998) are described below.

Sequences of proteins named here, by UniProt entry; tags and fusion partners are left off.
UniProt P28190, whole entry: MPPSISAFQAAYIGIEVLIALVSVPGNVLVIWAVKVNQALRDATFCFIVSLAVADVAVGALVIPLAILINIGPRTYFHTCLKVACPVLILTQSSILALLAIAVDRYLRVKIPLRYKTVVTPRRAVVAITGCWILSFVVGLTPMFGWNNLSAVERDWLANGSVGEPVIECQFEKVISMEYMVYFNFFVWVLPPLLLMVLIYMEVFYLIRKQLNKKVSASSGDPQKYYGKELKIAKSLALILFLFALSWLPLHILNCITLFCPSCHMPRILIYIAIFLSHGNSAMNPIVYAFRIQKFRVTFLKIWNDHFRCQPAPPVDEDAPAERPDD

Test [1] is described as follows: Inhibitory selectivity at Adenosine A3 receptor compared to Adenosine 1 receptor.
A short description of test [2]: Inhibitory selectivity at Adenosine 2A receptor compared to Adenosine 1 receptor.
Test [3] relates to Adenosine receptor A2a (Bos taurus). The settings on record: Striatum, Membrane, concentration not given here.
The next test addresses Adenosine receptor A1 (Bos taurus, UniProt P28190).
The nature of test [4]: Inhibitory selectivity at Adenosine A3 receptor compared to Adenosine 2A receptor.

On to `C[C@@]1(O)[C@@H](CO)O[C@@H](n2cnc3c(N)ncnc32)[C@@H]1O`, for which the Selectivity in test [1] and in test [2] was more than 202 each time. In test [3], this compound had an inhibition of 12%.
The compound `C[C@@]1(O)[C@H](O)[C@@H](CO)O[C@H]1n1cnc2c(N)ncnc21` displayed a Ki on Adenosine receptor A1 of 0.74 µM.
For the compound `C[C@@H](Cc1ccccc1)Nc1ncnc2c1ncn2C1O[C@H](CO)[C@@H](O)[C@@]1(C)O` (stereo partly specified), the Selectivity is 200 in test [1], more than 200 in test [2] and less than 1 in test [4]. The same compound gave an inhibition in test [3] of 17%.
On to `C[C@H](Cc1ccccc1)Nc1ncnc2c1ncn2[C@@H]1O[C@H](CO)[C@@H](O)[C@@]1(C)O`, for which the figures for the Selectivity in test [1], in test [2] and in test [4] were 230, 1580 and 0.14, respectively.
